Literature values in PMC5641599 (Molecular Metabolism, 2017).

Test system: MC4R variants
Settings: cited from earlier work

NDP-MSH
cAMP Emax - Ligand no.3 (% of WT) (MC4R A154D, ref Tao YX, J Clin Endocrinol Metab, 2005): 126.0 % of WT
cAMP Emax - Ligand no.3 (% of WT) (MC4R A175T, ERK1/2 pathway assay, ref Alfieri A, Gene, 2010): 40.0 % of WT
cAMP Emax - Ligand no.3 (% of WT) (MC4R A219V, ref Fan ZC, J Cell Mol Med, 2009): 56.0 % of WT
cAMP Emax - Ligand no.3 (% of WT) (MC4R A244V, COS-7 cell line, ref Reinehr T, Obesity, 2009): 118.6 % of WT
cAMP Emax - Ligand no.3 (% of WT) (MC4R C172R, ref Hohenadel MG, Int J Obes, 2014): 32.9 % of WT
cAMP Emax - Ligand no.3 (% of WT) (MC4R C271R, COS-7 cell line, ref Tarnow P, J Biol Chem, 2003): 71.5 % of WT
cAMP Emax - Ligand no.3 (% of WT) (MC4R F202L, COS-7 cell line, ref Hughes DA, Hum Genet, 2009): 83.0 % of WT
cAMP Emax - Ligand no.3 (% of WT) (MC4R F202L, ref Hohenadel MG, Int J Obes, 2014): 126.0 % of WT
cAMP Emax - Ligand no.3 (% of WT) (MC4R F202L, ref Tao YX, J Clin Endocrinol Metab, 2005): 89.0 % of WT
cAMP Emax - Ligand no.3 (% of WT) (MC4R F261S, ref Fan ZC, J Cell Mol Med, 2009): 49.0 % of WT
cAMP Emax - Ligand no.3 (% of WT) (MC4R G181D, ref Xiang Z, Biochemistry, 2010): 0.0 % of WT
cAMP Emax - Ligand no.3 (% of WT) (MC4R H158R, COS-7 cell line, ref Hinney A, J Clin Endocrinol Metab, 2006): 135.0 % of WT
cAMP Emax - Ligand no.3 (% of WT) (MC4R I125K, ref Xiang Z, Biochemistry, 2006): 0.0 % of WT
cAMP Emax - Ligand no.3 (% of WT) (MC4R I137T, ref Gu W, Diabetes, 1999): 65.0 % of WT
cAMP Emax - Ligand no.3 (% of WT) (MC4R I170V, COS-7 cell line, ref Hughes DA, Hum Genet, 2009): 98.0 % of WT
cAMP Emax - Ligand no.3 (% of WT) (MC4R I170V, ref Tao YX, Endocrinology, 2003): 147.0 % of WT
cAMP Emax - Ligand no.3 (% of WT) (MC4R I269N, ref Hohenadel MG, Int J Obes, 2014): 131.1 % of WT
cAMP Emax - Ligand no.3 (% of WT) (MC4R M200V, COS-7 cell line, ref Hinney A, J Clin Endocrinol Metab, 2006): 78.0 % of WT
cAMP Emax - Ligand no.3 (% of WT) (MC4R M200V, ref Tao YX, J Clin Endocrinol Metab, 2005): 104.0 % of WT
cAMP Emax - Ligand no.3 (% of WT) (MC4R M208V, ref Hohenadel MG, Int J Obes, 2014): 113.9 % of WT
cAMP Emax - Ligand no.3 (% of WT) (MC4R M218T, ref Rong R, Clin Endocrinol, 2006): 93.0 % of WT
cAMP Emax - Ligand no.3 (% of WT) (MC4R N240S, ref Tao YX, J Clin Endocrinol Metab, 2005): 72.0 % of WT
cAMP Emax - Ligand no.3 (% of WT) (MC4R P230L, ref Fan ZC, J Cell Mol Med, 2009): 122.0 % of WT
cAMP Emax - Ligand no.3 (% of WT) (MC4R Q156R, COS-7 cell line, ref Hinney A, J Clin Endocrinol Metab, 2006): 79.0 % of WT
cAMP Emax - Ligand no.3 (% of WT) (MC4R R165G, ref Hohenadel MG, Int J Obes, 2014): 135.5 % of WT
cAMP Emax - Ligand no.3 (% of WT) (MC4R R165Q, ref Hohenadel MG, Int J Obes, 2014): 142.7 % of WT
cAMP Emax - Ligand no.3 (% of WT) (MC4R R236H, COS-7 cell line, ref Hinney A, J Clin Endocrinol Metab, 2006): 105.0 % of WT
cAMP Emax - Ligand no.3 (% of WT) (MC4R S136F, COS-7 cell line, ref Tarnow P, Obes Facts, 2008): 14.0 % of WT
cAMP Emax - Ligand no.3 (% of WT) (MC4R S136F, ref Fan ZC, J Cell Mol Med, 2009): 11.0 % of WT
cAMP Emax - Ligand no.3 (% of WT) (MC4R S191T, COS-7 cell line, ref Hughes DA, Hum Genet, 2009): 99.0 % of WT
cAMP Emax - Ligand no.3 (% of WT) (MC4R T162R, COS-7 cell line, ref Ochoa MC, Clin Endocrinol, 2007): 104.0 % of WT
cAMP Emax - Ligand no.3 (% of WT) (MC4R V166I, COS-7 cell line, ref Hinney A, J Clin Endocrinol Metab, 2006): 122.0 % of WT
cAMP Emax - Ligand no.3 (% of WT) (MC4R V166I, COS-7 cell line, ref Hughes DA, Hum Genet, 2009): 122.0 % of WT
cAMP Emax - Ligand no.3 (% of WT) (MC4R W174C, ERK1/2 pathway assay, ref Alfieri A, Gene, 2010): 0.0 % of WT
cAMP Emax - Ligand no.3 (% of WT) (MC4R W174C, ref Fan ZC, J Cell Mol Med, 2009): 31.0 % of WT
cAMP Emax - Ligand no.3 (% of WT) (MC4R W174C, ref Xiang Z, Biochemistry, 2010): 0.0 % of WT
cAMP Emax - Ligand no.3 (% of WT) (MC4R Y157S, ref Tao YX, Endocrinology, 2003): 25.0 % of WT

Like-named read-outs stand apart in the source and are kept apart here.
